The source of these data is patent publication US20060088531A1.

The target in assay [1] is Collagen-Related Peptide (CRP). In words: ligand binding assay on CRP-coated wells, hD1D2-CaM at 10 µg/ml, no scFv.
The target in assay [2] is Collagen-Related Peptide (CRP). The assay is described as follows: ligand binding assay on CRP-coated wells, hD1D2-CaM at 1.0 µg/ml, no scFv.
In assay [3] the target is Collagen-Related Peptide (CRP). The assay is described as follows: ligand binding assay on CRP-coated wells, hD1D2-CaM at 2.5 µg/ml, no scFv.

Turning to “hD1D2-CaM (from UniProt Q9HCN6 21-205; P0DP23 2-149) (receptor)”, the mean absolute absorbance in assay [1] turned out to be 0.265; in assay [2] it was 0.26; in assay [3], 0.477.
